Measurements from patent US8575091B1, “Amylin analogues and pharmaceutical compositions thereof” (Novo Nordisk A/S, priority 2012, dated 2013).

Target: T1, human amylin receptor (Homo sapiens, UniProt O60896+P30988)
T1 construct: expressed in transfected cells
T1 sequence (P30988 25-474): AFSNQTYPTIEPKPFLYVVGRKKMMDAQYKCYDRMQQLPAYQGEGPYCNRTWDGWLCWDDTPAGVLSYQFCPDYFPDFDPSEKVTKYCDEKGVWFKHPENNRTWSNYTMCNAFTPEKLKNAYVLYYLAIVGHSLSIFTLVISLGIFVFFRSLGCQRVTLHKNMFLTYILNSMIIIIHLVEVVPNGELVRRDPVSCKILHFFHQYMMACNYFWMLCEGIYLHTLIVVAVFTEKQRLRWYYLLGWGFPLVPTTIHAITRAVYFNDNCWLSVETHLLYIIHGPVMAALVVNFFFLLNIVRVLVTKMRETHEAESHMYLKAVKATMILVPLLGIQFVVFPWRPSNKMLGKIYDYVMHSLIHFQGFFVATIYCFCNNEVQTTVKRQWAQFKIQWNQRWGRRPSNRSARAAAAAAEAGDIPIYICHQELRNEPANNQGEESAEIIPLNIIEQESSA
T1 sequence (O60896 24-148 partner): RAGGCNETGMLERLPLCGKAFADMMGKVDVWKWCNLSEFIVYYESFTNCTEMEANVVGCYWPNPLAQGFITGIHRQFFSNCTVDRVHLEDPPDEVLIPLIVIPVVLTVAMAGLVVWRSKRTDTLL
Assay: Assay (V) binding to the human amylin receptor (SPA, 125I-rat amylin)
Settings: species not stated

SMILES: CC(C)C[C@H](NC(=O)[C@H](CCCCN)NC(=O)CNC(=O)[C@H](CC(C)C)NC(=O)[C@@H](NC(=O)[C@@H]1CSSC[C@H](N)C(=O)N[C@@H](CO)C(=O)N[C@@H](CC(N)=O)C(=O)N[C@@H](CC(C)C)C(=O)N[C@@H](CO)C(=O)N[C@@H]([C@@H](C)O)C(=O)N1)C(C)C)C(=O)N[C@@H](CO)C(=O)N[C@@H](CCC(N)=O)C(=O)N[C@@H](CCC(=O)O)C(=O)N[C@@H](CC(C)C)C(=O)N[C@@H](Cc1c[nH]cn1)C(=O)N[C@@H](CCCCN)C(=O)N[C@@H](CC(C)C)C(=O)N[C@@H](CCC(N)=O)C(=O)N[C@H](C(=O)N[C@@H](Cc1ccc(O)cc1)C(=O)N1CCC[C@H]1C(=O)N[C@@H](CCCNC(=N)N)C(=O)N[C@H](C(=O)N[C@@H](CC(N)=O)C(=O)N[C@H](C(=O)NCC(=O)N[C@@H](CO)C(=O)NCC(=O)N[C@H](C(=O)N1CCC[C@H]1C(N)=O)[C@@H](C)O)[C@@H](C)O)[C@@H](C)O)[C@@H](C)O [salmon calcitonin]
- binding affinities to amylin receptors and calcitonin receptors: comparable binding affinities to amylin receptors and calcitonin receptors
